Assay results as given in PubChem BioAssay AID2521 (Sanford-Burnham Center for Chemical Genomics, 2010).
Only a part is listed here, and it is no random draw. The source made the active and inactive calls.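 The calls were made as follows: active = inhibition above about 40% at 20 µM (limit read from the data); inactive = the rest.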

By UniProt entry, the sequences of proteins in these tests, tags left out. Where a name states a change or a piece, a line headed by the entry shows the natural chain unless it says otherwise.
UniProt P35414: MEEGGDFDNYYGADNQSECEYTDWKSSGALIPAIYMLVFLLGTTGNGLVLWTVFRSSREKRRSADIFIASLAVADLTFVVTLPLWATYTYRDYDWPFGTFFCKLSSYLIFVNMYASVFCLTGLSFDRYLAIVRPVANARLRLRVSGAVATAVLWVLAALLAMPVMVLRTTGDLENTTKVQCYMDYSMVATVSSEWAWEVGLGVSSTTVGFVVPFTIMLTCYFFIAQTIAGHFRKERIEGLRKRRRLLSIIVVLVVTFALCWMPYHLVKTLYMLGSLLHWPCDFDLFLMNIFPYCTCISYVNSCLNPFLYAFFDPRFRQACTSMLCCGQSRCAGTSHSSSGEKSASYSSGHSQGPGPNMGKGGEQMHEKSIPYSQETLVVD

What follows are compounds tested against Apelin receptor (Homo sapiens) (UniProt P35414) (assay: blockade of apelin-induced APJ beta-arrestin recruitment – CHO-K1 cells, beta-arrestin complementation, luminescence, primary screen (AID 2521;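 also: cells challenged with 10 nM apelin-13 agonist together with compound; plate controls were apelin-13 plus DMSO wells for no effect and DMSO wells lacking apelin-13 for full effect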)). Details: at 20 µM, hits give high values.

**Q.** `C[N+]1=C2C=CC=CC=C2SC12C([N+](=O)[O-])=CC([N+](=O)[O-])=C[C-]2[N+](=O)[O-]` (stereo unspecified) was tested. Which inhibition did it give?
**A.** active: 71.8%

**Q.** With `Nc1ccc([As](=O)(O)c2ccc(N)cc2)cc1` as the compound, how does the inhibition read?
**A.** inactive: 5.54%

**Q.** Which inhibition does the source give for `O=C(Nc1cc([As](=O)(O)O)ccc1O)c1ccccc1` here?
**A.** inactive: 0.845%

**Q.** Which inhibition does the source give for `O=[N+]([O-])c1cccc(NC2=NCC(CBr)S2)c1` (stereo unspecified) here?
**A.** inactive: 9.93%

**Q.** `O=[N+]([O-])c1ncn(CCn2ncnc2[N+](=O)[O-])n1` was tested. Which inhibition did it give?
**A.** inactive: -35.5%

**Q.** For `CC(C)(C)C(=O)NC(Sc1ccncn1)C(Cl)(Cl)Cl` (stereo unspecified), which inhibition is on record?
**A.** inactive: 7.58%

**Q.** With `Cc1cc(SC(NC(=O)c2ccccc2)C(Cl)(Cl)Cl)nc(C(C)C)n1` (stereo unspecified) as the compound, how does the inhibition read?
**A.** inactive: -0.633%

**Q.** How did the inhibition turn out when `CCCCOc1ccc(C(=O)NCC2(N3CCCCC3)CCCCC2)cc1OC` was run?
**A.** inactive: 16%

**Q.** How did the inhibition turn out when `CCOC(=O)Nc1ccc([As](=O)(O)O)c(O)c1` was run?
**A.** inactive: -6.11%

**Q.** Which inhibition does the source give for `Cc1cc(SC(NC=O)C(Cl)(Cl)Cl)ncn1` (stereo unspecified) here?
**A.** inactive: 10.9%

**Q.** How did the inhibition turn out when `O=P(Nc1ccccn1)(c1cccc2ccccc12)c1cccc2ccccc12` was run?
**A.** inactive: 6.05%

**Q.** Which inhibition does the source give for `CCOC(=O)Nc1cccc([As](=O)(O)O)c1` here?
**A.** inactive: 12.7%

**Q.** Which inhibition does the source give for `O=C(Nc1ccncc1[N+](=O)[O-])c1ccc([N+](=O)[O-])cc1[N+](=O)[O-]` here?
**A.** inactive: -71.7%

**Q.** `O=C(COc1ccccc1)OC1CN2CCC1CC2` (stereo unspecified) was tested. Which inhibition did it give?
**A.** inactive: 12.3%

**Q.** `COP1(=S)c2c(C)nn(CCC#N)c2N=C(c2ccc(F)cc2)N1C` (stereo unspecified) was tested. Which inhibition did it give?
**A.** inactive: 9.84%

**Q.** With `CCC(C)N(CC(C)C)C(=S)SC(NC(C)=O)C(Cl)(Cl)Cl` (stereo unspecified) as the compound, how does the inhibition read?
**A.** inactive: -6.26%

**Q.** How did the inhibition turn out when `O=C(OC1CN2CCC1CC2)c1cccc([N+](=O)[O-])c1` (stereo unspecified) was run?
**A.** inactive: -11.8%

**Q.** With `CCOC(=O)c1ccc(NC(=O)C(C)(CCl)SC)cc1` (stereo unspecified) as the compound, how does the inhibition read?
**A.** inactive: -0.433%

**Q.** Which inhibition does the source give for `COc1cc(I)ccc1[As](=O)(O)O` here?
**A.** inactive: -10%

**Q.** `COc1ccc2nc(NP(=O)(c3ccccc3)c3ccccc3)sc2c1` was tested. Which inhibition did it give?
**A.** inactive: -0.142%

**Q.** How did the inhibition turn out when `Cc1c2c(nc3ccccc13)SC(C(Cl)Cl)C2` (stereo unspecified) was run?
**A.** inactive: 1.73%

**Q.** `Cc1cc(=O)[nH]c(N[N+](=O)[O-])n1` was tested. Which inhibition did it give?
**A.** inactive: 4.67%

**Q.** How did the inhibition turn out when `O=C(OC1CN2CCC1CC2)C12CC3CC(CC(C3)C1)C2` (stereo unspecified) was run?
**A.** inactive: 5.31%

**Q.** Which inhibition does the source give for `COc1ccc(N/C(=N/P(=O)(N2CCOCC2)N2CCOCC2)N2CCOCC2)cc1` here?
**A.** inactive: 1.84%

**Q.** Which inhibition does the source give for `Cc1ccc(OP(=O)(Nc2ccc([N+](=O)[O-])cn2)Oc2ccc(C)cc2)cc1` here?
**A.** inactive: -17.1%

**Q.** With `Cc1ccc2nc3c(c(C)c2c1)CC(C(Cl)Cl)S3` (stereo unspecified) as the compound, how does the inhibition read?
**A.** inactive: 5.01%

**Q.** How did the inhibition turn out when `COc1cc(C(=O)NCC2(N3CCOCC3)CCCCC2)ccc1OCC(C)C` was run?
**A.** inactive: 11.1%

**Q.** `O=[As](O)(c1ccc(O)cc1)c1ccccc1O` was tested. Which inhibition did it give?
**A.** inactive: -14.5%

**Q.** For `C[As](=O)(O)c1cccc(C(=O)O)c1`, which inhibition is on record?
**A.** inactive: -8.68%

**Q.** How did the inhibition turn out when `O=[N+]([O-])c1cc([N+](=O)[O-])c(-c2ccn[nH]2)s1` was run?
**A.** inactive: -44.4%

**Q.** `CC(C)NC(=O)NP(=O)(Oc1ccccc1)Oc1ccccc1` was tested. Which inhibition did it give?
**A.** inactive: -3.51%

**Q.** For `CCN(CC)C(=S)SC(NC=O)C(Cl)(Cl)Cl` (stereo unspecified), which inhibition is on record?
**A.** inactive: -5.08%

**Q.** How did the inhibition turn out when `O=C(OC1CN2CCC1CC2)c1cccc2[nH]cnc12` (stereo unspecified) was run?
**A.** inactive: -4.45%

**Q.** For `ClCCSc1nnc(-c2cccnc2)o1`, which inhibition is on record?
**A.** inactive: -5.39%

**Q.** `CC(C)c1ccc(OP(=O)(Nc2ccccn2)Oc2ccccc2F)cc1` (stereo unspecified) was tested. Which inhibition did it give?
**A.** inactive: 13.9%

**Q.** With `O=C(O)COc1ccc([As](=O)(O)O)cc1[N+](=O)[O-]` as the compound, how does the inhibition read?
**A.** inactive: -9.13%

**Q.** How did the inhibition turn out when `Nc1ccccc1[As](=O)(O)c1ccccc1` was run?
**A.** inactive: 0.154%

**Q.** `O=P(Nc1nccs1)(Oc1ccccc1)Oc1ccccc1` was tested. Which inhibition did it give?
**A.** inactive: 4.37%

**Q.** With `O=P(Nc1nccs1)(c1ccccc1)c1nc2ccccc2s1` (stereo unspecified) as the compound, how does the inhibition read?
**A.** inactive: 28.8%

**Q.** For `CCOP1(=S)c2c(C)nn(CCC#N)c2N=C(c2ccccc2F)N1C` (stereo unspecified), which inhibition is on record?
**A.** inactive: 19%

**Q.** Which inhibition does the source give for `CS(=O)(=O)c1cc([N+](=O)[O-])c2no[n+]([O-])c2c1` here?
**A.** inactive: -36%

**Q.** Which inhibition does the source give for `CN(C(=O)Cc1ccccc1)[C@@H]1CC[C@]2(CCCO2)C[C@H]1N1CCCC1` here?
**A.** inactive: 19.3%

**Q.** With `CCOP1(=S)c2c(C)nn(CCC#N)c2N=C(c2ccc(F)cc2)N1C` (stereo unspecified) as the compound, how does the inhibition read?
**A.** inactive: 19.5%

**Q.** How did the inhibition turn out when `N#CCCN(C(=O)COC(=O)C(O)(c1ccccc1)c1ccccc1)c1ccc(F)cc1` was run?
**A.** inactive: 21%

**Q.** Which inhibition does the source give for `CN(C(=O)Cc1ccc(Cl)c(Cl)c1)[C@H]1CC[C@@]2(CCCO2)C[C@@H]1N1CCCC1` here?
**A.** inactive: 9.47%

**Q.** With `O=[N+]([O-])c1ccc2c(c1)nnn2O` as the compound, how does the inhibition read?
**A.** inactive: -1.06%

**Q.** For `CN(C)C(=O)c1cc([N+](=O)[O-])cc2c1-c1c(cc([N+](=O)[O-])cc1[N+](=O)[O-])C2=O`, which inhibition is on record?
**A.** inactive: 26.1%

**Q.** How did the inhibition turn out when `NC(=O)Nc1ccc([As](=O)(O)O)cc1` was run?
**A.** inactive: -0.956%

**Q.** With `Cc1cccc(OCC(=O)OC2CN3CCC2CC3)c1` (stereo unspecified) as the compound, how does the inhibition read?
**A.** inactive: -7.28%

**Q.** For `O=[As](O)(c1cccc(O)c1)c1cccc(O)c1`, which inhibition is on record?
**A.** inactive: 5.65%

**Q.** `O=C(OC1CN2CCC1CC2)c1ccc(Cl)cc1` (stereo unspecified) was tested. Which inhibition did it give?
**A.** inactive: 19.2%

**Q.** How did the inhibition turn out when `CS(=O)(=O)c1ccc(Cl)c(NC(=O)COC(=O)C(O)(c2ccccc2)c2ccccc2)c1` was run?
**A.** inactive: -2.79%

**Q.** With `O=[As](O)(O)c1cccnc1` as the compound, how does the inhibition read?
**A.** inactive: -13.4%

**Q.** `COc1cc(C(=O)NCC2(N3CCOCC3)CCCCC2)cc(Cl)c1OC(C)C` was tested. Which inhibition did it give?
**A.** inactive: 13.7%

**Q.** With `CCOP(=O)(Nc1cccc2ccccc12)OCC` as the compound, how does the inhibition read?
**A.** inactive: 9.61%

**Q.** Which inhibition does the source give for `COc1cc(C2NCCC3(OCCO3)C2(C)C)cc(OC)c1OC` (stereo unspecified) here?
**A.** inactive: -3.69%

**Q.** `Cc1ccc(NCCc2c([N+](=O)[O-])cc([N+](=O)[O-])cc2[N+](=O)[O-])cc1` was tested. Which inhibition did it give?
**A.** inactive: -6.16%

**Q.** How did the inhibition turn out when `CCCOP(=S)(Nc1nc(N)cc(=O)[nH]1)OCCC` was run?
**A.** inactive: 5.3%

**Q.** Which inhibition does the source give for `CC(C)(C)C(=O)NC(Sc1ncccn1)C(Cl)(Cl)Cl` (stereo unspecified) here?
**A.** inactive: -24.9%

**Q.** Which inhibition does the source give for `Clc1n[nH]nc1-c1nn[nH][15n]1` here?
**A.** inactive: 2.14%

**Q.** Which inhibition does the source give for `CCOP(=O)(NC(=NC(C)c1ccccc1)NC(C)c1ccccc1)OCC` (stereo unspecified) here?
**A.** inactive: 9.2%

**Q.** For `CCC1=CC2Cc3nc4ccc(Cl)cc4c(N)c3C(C1)C2` (stereo unspecified), which inhibition is on record?
**A.** inactive: -0.784%

**Q.** Which inhibition does the source give for `O=P1(Nc2ccccn2)COc2ccccc2OC1` here?
**A.** inactive: -10.6%

**Q.** `CCOP(=O)(Nc1ccc(C)cn1)OCC` was tested. Which inhibition did it give?
**A.** inactive: -23.2%

**Q.** How did the inhibition turn out when `CN(CCCl)Cc1cc(Cl)c(NC2=NCCN2)c(Cl)c1` was run?
**A.** inactive: 1.15%

**Q.** `CN(C(=O)Cc1ccc(Cl)c(Cl)c1)[C@@H]1CCCC[C@H]1N1CCCC1` was tested. Which inhibition did it give?
**A.** inactive: 16.5%

**Q.** Which inhibition does the source give for `CC(C)/C=N\N=C(\N)N[N+](=O)[O-]` here?
**A.** inactive: 2.16%

**Q.** Which inhibition does the source give for `CC1(CBr)Cn2c(nc3ccccc3c2=O)S1` (stereo unspecified) here?
**A.** inactive: -25.3%

**Q.** How did the inhibition turn out when `O=[As](O)(c1ccccc1Br)c1ccccc1Br` was run?
**A.** inactive: 14.7%

**Q.** Which inhibition does the source give for `COc1ccccc1CNC(=O)COC(=O)C(O)(c1ccccc1)c1ccccc1` here?
**A.** inactive: 12%

**Q.** For `CN(C)C1(CNC(=O)c2ccc(S(C)(=O)=O)cc2)CCCCC1`, which inhibition is on record?
**A.** inactive: 15.1%

**Q.** For `O=C(/C=C/c1ccccc1)OC1CN2CCC1CC2` (stereo unspecified), which inhibition is on record?
**A.** inactive: 16%

**Q.** With `Cc1ccc(C(=O)OC2CN3CCC2CC3)cc1` (stereo unspecified) as the compound, how does the inhibition read?
**A.** inactive: 20.5%

**Q.** Which inhibition does the source give for `CC1CCC(C(C)C)C(OP(=O)(Nc2ccccn2)c2ccccc2)C1` (stereo unspecified) here?
**A.** inactive: -1.13%

**Q.** For `Cc1nn(-c2ccccc2)c2c1P(=O)(N1CCOCC1)N(C)C(c1ccccc1)=N2` (stereo unspecified), which inhibition is on record?
**A.** inactive: 15.4%

**Q.** With `Nc1cccc([As](=O)(O)c2ccccc2)c1` as the compound, how does the inhibition read?
**A.** inactive: 16%

**Q.** How did the inhibition turn out when `Cc1ccc(OCC(=O)OC2CN3CCC2CC3)cc1` (stereo unspecified) was run?
**A.** inactive: 7.65%

**Q.** `O=[As](O)(c1cccs1)c1cccs1` was tested. Which inhibition did it give?
**A.** inactive: -13.5%

**Q.** With `NS(=O)(=O)c1cccc(NC(=O)COC(=O)C(O)(c2ccccc2)c2ccccc2)c1` as the compound, how does the inhibition read?
**A.** inactive: 4.05%

**Q.** `O=P1(Nc2ccc(Br)cn2)COc2ccccc2OC1` was tested. Which inhibition did it give?
**A.** inactive: -1.73%

**Q.** How did the inhibition turn out when `O=P1(Nc2ncccn2)COc2ccccc2OC1` was run?
**A.** inactive: 8.64%
